Earlier results, collected in PMC8373167 (Advanced Science, 2021).

Settings: in vivo; cited from earlier work

Structure (SMILES): OC[C@H]1OC(O)[C@H](F)[C@@H](O)[C@@H]1O (stereo partly shown) [^18F‐FDG, ^18F‐Fluorodeoxyglucose]
- whole-body effective dose: 0.019 mSv MBq^−1
